## Experimental logP (octanol/water) values from OPERA 2.9

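The numbers are reported measurements, compiled and curated for the OPERA QSAR suite. A listed value is a point estimate from one report or more. How each value was measured is not recorded, so precision varies. Where a salt, mixture or single isomer is drawn, the source does not say that exactly this form was tested. Unmarked limits or estimates from the upstream databases cannot be ruled out.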

logP is the log10 of the octanol-water partition coefficient; higher is more lipophilic. "n/a" marks a cell with nothing listed here. The databases behind each value are named after "via".

| structure (SMILES) | name | logP | via |
|---|---|---|---|
| CC(CN=Cc1ccccc1O)N=Cc1ccccc1O (stereo not drawn) | n/a | 3.6 | eChemPortal |
| CC(=O)Nc1cc(Nc2nc(Nc3ccc(/N=N/c4cccc(S(=O)(=O)[O-])c4)c(NC(C)=O)c3)nc(N3CCOCC3)n2)ccc1/N=N/c1cccc(S(=O)(=O)[O-])c1.[Na+].[Na+] | n/a | -2.05 | eChemPortal |
| CC(C)OC(=O)[C@H](C)OC(=O)C(C)(C)C | (S)-1-Isopropoxy-1-oxo-2-propanyl pivalate | 3.32 | eChemPortal |
| N#Cc1ccc(SCCCS(=O)(=O)[O-])cc1C#N.[Li+] | n/a | -2.32 | eChemPortal |
| CO[Si](CCCS[Si](C)(C)C(C)(C)C)(OC)OC | n/a | 6.27 | eChemPortal |
| COc1ccc(C=CC(=O)OCCC(C)C)cc1 | Amiloxate | 4.78 | eChemPortal |
| CCCCCCCOCC(C)CC=O (stereo not drawn) | Butanal, 4-(heptyloxy)-3-methyl- | 4.8 | eChemPortal |
| Cc1[nH]cnc1CO | 1H-Imidazole-4-methanol, 5-methyl- | -0.62 | eChemPortal |
| c1ccc(CCOC2CCCCC2)cc1 | Benzene, [2-(cyclohexyloxy)ethyl]- | 4.9 | eChemPortal |
| Clc1cc(Cl)c(OCC#CI)cc1Cl | Haloprogin | 5.3 | PubChem |
| FC(F)(F)C(F)(F)C(F)(F)C(F)(F)C(F)(F)C(F)(F)CCI | 1H,1H,2H,2H-Perfluorooctyl iodide | 3.8 | eChemPortal |
| CCN(CC)c1ccc(C(C2=CC(=O)C(S(=O)(=O)[O-])=CC2=S(=O)([O-])O)=C2C=CC(=[N+](CC)CC)C=C2)cc1.[Na+] | n/a | -2.31 | eChemPortal |
| Cc1c(O)cccc1O | 2-Methyl-1,3-benzenediol | 0.183 | eChemPortal |
| CCCCOCC(C)O (stereo not drawn) | 1-Butoxy-2-propanol | 1.175 | PubChem, eChemPortal |
| CC(CO)(CO)C(=O)O | 3-Hydroxy-2-(hydroxymethyl)-2-methylpropanoic acid | -1.1 | eChemPortal |
| c1ccc2c(c1)CC1COCOC21 (stereo not drawn) | 4,4a,5,9b-Tetrahydroindeno(1,2-d)-1,3-dioxin | 1.76 | eChemPortal |
| Cc1c(S(C)(=O)=O)ccc(C(=O)O)c1Cl | 2-Chloro-4-(methanesulfonyl)-3-methylbenzoic acid | 0.004 | eChemPortal |
| Nc1c(I)cc(I)c(C(=O)[O-])c1I.[Na+] | Benzoic acid, 3-amino-2,4,6-triiodo-, sodium salt | 0.97 | eChemPortal |
| C=CC(=O)OC1CCC(C(C)(C)C)CC1 (stereo not drawn) | 4-tert-Butylcyclohexyl prop-2-enoate | 5.55 | eChemPortal |
| C=C(C)C(=O)OCCOc1ccccc1 | Ethylene glycol phenyl ether methacrylate | 3.073 | eChemPortal |
| CC(=O)O[C@@]12CO[C@@H]1C[C@H](O)[C@@]1(C)C(=O)[C@H](O)C3=C(C)[C@@H](OC(=O)[C@H](O)[C@@H](NC(=O)OC(C)(C)C)c4ccccc4)C[C@@](O)([C@@H](OC(=O)c4ccccc4)[C@H]21)C3(C)C | Docetaxel | 2.4 | PubChem |
| Cc1csc2c(Cl)cccc12 | 7-Chloro-3-methyl-1-benzothiophene | 4.19 | eChemPortal |
| FC(F)(F)COc1cccnc1Cl | 2-Chloro-3-(2,2,2-trifluoroethoxy)pyridine | 2.2 | eChemPortal |
| Cc1cn2[nH]c(=N)nc2nc1O | n/a | -0.785 | eChemPortal |
| O=C(ON1C(=O)CCC1=O)ON1C(=O)CCC1=O | Di(succinimido) carbonate | -0.878 | eChemPortal |
| C=COC(=O)CCCCC(C)(C)C | Vinyl neononanoate | 4.6 | eChemPortal |
| Cc1nn(-c2ccccc2)c([O-])c1/N=N/c1cc(S(=O)(=O)[O-])cc(S(=O)(=O)[O-])c1[O-].[Cu+2].[Na+].[Na+] | n/a | -4.75 | eChemPortal |
| CC(=O)CC(N)=O | 3-Oxobutanamide | -1.4 | eChemPortal |
| CC(C)[C@@H]1CC[C@@H](C)C[C@H]1OC(=O)[C@@H]1CCC(=O)N1 | n/a | 3.13 | eChemPortal |
| CCCCCC(CO)CCC (stereo not drawn) | 2-Propyl-1-heptanol | 4.17 | eChemPortal |
| O=C1c2cccc(Sc3ccccc3)c2C(=O)c2c(Sc3ccccc3)cccc21 | n/a | 3.38 | eChemPortal |
| C[C@H](CCC(=O)O)[C@H]1CC[C@H]2[C@@H]3C(=O)C[C@@H]4CC(=O)CC[C@]4(C)[C@H]3CC(=O)[C@]12C | Dehydrocholic acid | 1.64 | eChemPortal |
| CSc1c(C)cc(O)cc1C | 3,5-Dimethyl-4-(methylthio)phenol | 3.455 | eChemPortal |
| CNc1ccc(O)cc1.CNc1ccc(O)cc1.O=S(=O)(O)O | N-Methyl-p-aminophenol sulfate | 0.79 | eChemPortal |
| CCC1(O)CC2CN(CCc3c([nH]c4ccccc34)C(C(=O)OC)(c3cc4c(cc3OC)N(C=O)C3C(O)(C(=O)OC)C(OC(C)=O)C5(CC)C=CCN6CCC43C65)C2)C1.O=S(=O)(O)O (stereo not drawn) | Vincristine sulfate | 2.82 | OCHEM |
| OCCN(CCO)c1ccccc1 | N-Phenyl diethanolamine | 0.96 | eChemPortal |
| COCC[N+](C)(C)C.[I-] | 2-Methoxy-N,N,N-trimethylethan-1-aminium iodide | -2.62 | OCHEM |
| CN(C)CCOCCN(C)CCOCCN(C)C | N,N,2,8-Tetramethyl-5,11-dioxa-2,8-diazatridecan-13-amine | -0.039 | eChemPortal |
| CC(=O)Nc1ccc(NC(=O)c2cc3ccccc3cc2O)cc1 | n/a | 3.1 | eChemPortal |
| C=C(COC(C)=O)COC(C)=O | 2-Methylenepropane-1,3-diyl diacetate | 1.15 | eChemPortal |
| COC(=O)CCS | Methyl 3-mercaptopropionate | 0.9 | eChemPortal |
| O=Cc1cc(O)c(O)c([N+](=O)[O-])c1 | 3,4-Dihydroxy-5-nitrobenzaldehyde | 1.23 | eChemPortal |
| CCCC(C#N)CCC | 2-Propylvaleronitrile | 2.71 | eChemPortal |
| Br.CN[C@@H](C)c1cccc(OC)c1 | (S)-1-(3-Methoxyphenyl)-N-methylethanamine hydrobromide | -1.69 | eChemPortal |
| CCCCOC(=O)CCS | Butyl 3-mercaptopropionate | 3.07 | eChemPortal |
| CC1=CCC(C=CC(C)(C)C(C)O)C1(C)C (stereo not drawn) | n/a | 4.66 | eChemPortal |
| O=c1oc(=O)c2cc3c(=O)oc(=O)c3cc12 | 1H,3H-Benzo(1,2-c:4,5-c')difuran-1,3,5,7-tetrone | -2.03 | eChemPortal |
| CC(C)CC1CC(C)CCO1 (stereo not drawn) | 2-Isobutyl-4-methyltetrahydro-2H-pyran | 4.3 | OCHEM |

The 6 highest values of logP among the entries above:

| structure (SMILES) | name | logP | via |
|---|---|---|---|
| CO[Si](CCCS[Si](C)(C)C(C)(C)C)(OC)OC | n/a | 6.27 | eChemPortal |
| C=CC(=O)OC1CCC(C(C)(C)C)CC1 (stereo not drawn) | 4-tert-Butylcyclohexyl prop-2-enoate | 5.55 | eChemPortal |
| Clc1cc(Cl)c(OCC#CI)cc1Cl | Haloprogin | 5.3 | PubChem |
| c1ccc(CCOC2CCCCC2)cc1 | Benzene, [2-(cyclohexyloxy)ethyl]- | 4.9 | eChemPortal |
| CCCCCCCOCC(C)CC=O (stereo not drawn) | Butanal, 4-(heptyloxy)-3-methyl- | 4.8 | eChemPortal |
| COc1ccc(C=CC(=O)OCCC(C)C)cc1 | Amiloxate | 4.78 | eChemPortal |

Values as listed in the OPERA 2.9 repository of K. Mansouri.